The list shows a part of the results, in another mix than the full data. The source made the active and inactive calls.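 The calls were made as follows: active = mean E-selectin-positive cell signal at least 10% of the positive control, reached in at least 60% of replicates, without over 20% cell loss; inconclusive = no rule given, readout overlaps actives, possibly toxicity-flagged; inactive = the rest, including those meeting only one limit.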
molecular target: E-selectin (Homo sapiens) (UniProt P16581); experiment: inducers of endothelial E-selectin expression – imaging, HUVEC, immunofluorescence imaging, single point, primary screen (AID 686992); details: at 7.58 µM, active compounds read high, normalized: neutral wells 0, TNF-alpha wells 100;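 also: signal is the percent of cells scored E-selectin positive by PE staining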
Procedure, shortened: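 Test system – human umbilical vein endothelial cells (HUVEC), E-selectin induction · Input – 3,000 HUVEC seeded per well · Buffer or medium – EGM-2, gelatin · Compound dosing – single-point compound dose · Detection – immunofluorescence imaging · Measure – percent E-selectin-positive cells · Controls – TNF-alpha high, DMSO low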

Amino acid sequences for entries named in this document (tags omitted). A change or cut given only in a name is not applied to a line headed by its entry.
UniProt P16581: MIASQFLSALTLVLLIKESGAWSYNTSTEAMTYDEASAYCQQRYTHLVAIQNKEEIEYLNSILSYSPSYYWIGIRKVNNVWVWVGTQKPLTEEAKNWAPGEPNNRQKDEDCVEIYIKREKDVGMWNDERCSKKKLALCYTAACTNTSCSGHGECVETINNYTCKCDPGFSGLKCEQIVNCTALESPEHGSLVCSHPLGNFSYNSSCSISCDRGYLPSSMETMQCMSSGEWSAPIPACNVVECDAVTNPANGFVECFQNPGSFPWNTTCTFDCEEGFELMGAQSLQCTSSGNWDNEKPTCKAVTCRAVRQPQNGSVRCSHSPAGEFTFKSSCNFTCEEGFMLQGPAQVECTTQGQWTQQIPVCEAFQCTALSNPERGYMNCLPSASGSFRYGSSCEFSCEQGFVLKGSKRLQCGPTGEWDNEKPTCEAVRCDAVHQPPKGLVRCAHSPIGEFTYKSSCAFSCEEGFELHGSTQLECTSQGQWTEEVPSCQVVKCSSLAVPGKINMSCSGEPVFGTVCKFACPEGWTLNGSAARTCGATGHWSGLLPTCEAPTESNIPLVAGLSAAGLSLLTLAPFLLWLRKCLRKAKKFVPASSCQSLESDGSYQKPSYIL

SMILES	activation
CCN(N=Nc1nonc1N)c1nonc1N	inactive: -0.0175%
CCCC1OP(N)(=O)OCC1CC (centres undefined)	inactive: 0.236%
O=C(O)c1ccccc1[As](=O)(O)O	inactive: 0.07%
CC(=O)Nc1ccc([As](=O)(O)O)cc1	inactive: -0.5%
CN(C)P(=O)(N(C)C)n1c(Nc2ccccc2)nnc1-c1ccccc1	inactive: 0.0915%
O=P(Nc1nc2ccc(Cl)cc2s1)(c1ccccc1)c1ccccc1	inactive: 6.57%
CN(C(=O)Cc1ccc(Cl)c(Cl)c1)[C@H]1CCCC[C@@H]1N1CCCC1	inactive: 1.69%
Cc1ccc(NP(=O)(Oc2ccccc2F)Oc2ccccc2F)nc1	inactive: 1.29%
Nc1cc(N)c2nonc2c1[N+](=O)[O-]	inactive: 0.0885%
O=C(NC(Sc1ccncn1)C(Cl)(Cl)Cl)c1ccccc1 (centres undefined)	inactive: -0.665%
NC(=O)c1cc([N+](=O)[O-])cc([N+](=O)[O-])c1N	inactive: 4.28%
Cc1ccc(N/C(=N/P(=O)(N2CCOCC2)N2CCOCC2)N2CCOCC2)cc1	inactive: 6.01%
CN(C(=O)Cc1ccc(Cl)c(Cl)c1)[C@H]1CCCC[C@H]1N1CCCC1	inactive: 0.955%
Clc1ccc(Cl)c(NC2=NCC(CBr)S2)c1 (centres undefined)	inactive: 0.345%
C[N+]1=C2C=CC=CC=C2SC12C([N+](=O)[O-])=CC([N+](=O)[O-])=C[C-]2[N+](=O)[O-] (centres undefined)	inactive: -0.0585%
Nc1ccc([As](=O)(O)c2ccc(N)cc2)cc1	inactive: 3.01%
CC(C)c1nc(Nc2ccccc2)n(P(=O)(N(C)C)N(C)C)n1	inactive: 0.021%
c1cc(-c2nn[nH]n2)ccc1-c1nn[nH]n1	inactive: -0.293%
COc1ccc(C2=NCC(CBr)S2)cc1 (centres undefined)	inactive: 9.03%
Cc1ccc(NP(=O)(Oc2ccccc2)Oc2ccccc2)nc1	inactive: -2.04%
CC(C)(C)C(=O)NC(Sc1ccncn1)C(Cl)(Cl)Cl (centres undefined)	inactive: 5.83%
O=[N+]([O-])c1ncn(CCn2ncnc2[N+](=O)[O-])n1	inactive: 0.532%
O=[N+]([O-])c1cccc(NC2=NCC(CBr)S2)c1 (centres undefined)	inactive: -0.149%
COC(=O)C1(C)COP(=O)(Nc2ccccc2)OC1 (centres undefined)	inactive: 0.031%
O=C(O)CNc1ccc([As](=O)(O)O)cc1	inactive: -0.001%

SMILES	activation
O=P1(N(CCCl)CCCl)OCCCS1 (centres undefined)	inactive: 0.0545%
O=C(Nc1cc([As](=O)(O)O)ccc1O)c1ccccc1	inactive: -1.79%
CC(=O)NC(SC(=S)N(C)C)C(Cl)(Cl)Cl (centres undefined)	inactive: 2.31%
O=[N+]([O-])c1ncn(CCn2cnc([N+](=O)[O-])n2)n1	inactive: 9.73%
O=[As](O)(c1ccccc1)c1ccc(O)cc1	inactive: -0.435%
C(Cc1nn[nH]n1)Cc1nn[nH]n1	inactive: 1.09%
C/C(N)=N\P(=O)(OCc1ccccc1)OCc1ccccc1	inactive: -0.226%
Nc1ccc(CCCCOc2ccccc2)cc1	inactive: 0.651%
COc1ccc(N)c([N+](=O)[O-])c1[N+](=O)[O-]	inactive: -0.303%
C[C@H]1OP(=O)(Oc2ccccc2)[C@H](O)[C@H](O)[C@H]1N=[N+]=[N-] (some centres undefined)	inactive: -0.0175%
COC(=O)C1(C)COP(=O)(NCc2ccccc2)OC1 (centres undefined)	inactive: 0.981%
N#C/C(=C\c1ccc(N(CCBr)CCBr)cc1)C(N)=O	inactive: 1.3%
C[C@@H]1C=CCP(=O)(Oc2ccccc2)O1 (some centres undefined)	inactive: -0.085%
C[C@H]1OP(=O)(Oc2ccccc2)C[C@@H]2O[C@@H]21 (some centres undefined)	inactive: -0.073%
Cc1ccccc1CN(C)C(=O)COC(=O)C(O)(c1ccccc1)c1ccccc1	inactive: 2.3%
CC(=O)Nc1ccc(Oc2c([N+](=O)[O-])cc([N+](=O)[O-])cc2[N+](=O)[O-])cc1	inactive: 0.223%
CC(=O)Nc1ccc([As](=O)(O)O)c(O)c1	inactive: 2.6%
CCc1cc(O)c([N+](=O)[O-])c(C)c1[N+](=O)[O-]	inactive: -0.355%
O=C(OC1CN2CCC1CC2)c1ccccc1 (centres undefined)	inactive: -0.036%
CN(C)C(=O)Oc1noc2ccccc12	inactive: 0.0945%
CC(NC(=O)COC(=O)C(O)(c1ccccc1)c1ccccc1)c1ccccc1 (centres undefined)	inactive: 0.518%
CCNC(=S)/N=C(\N)N[N+](=O)[O-]	inactive: 0.03%
NC(=O)Nc1ccc([As](=O)(O)O)cc1	inactive: 0.857%
CN(C(=O)Cc1ccc(Cl)c(Cl)c1)[C@H]1CC[C@@]2(CCCO2)C[C@@H]1N1CCCC1	inactive: 0.18%
CN(C)C(=O)c1cc([N+](=O)[O-])cc2c1-c1c(cc([N+](=O)[O-])cc1[N+](=O)[O-])C2=O	inactive: -3.59%

SMILES	activation
CN(C(=O)Cc1ccccc1)[C@@H]1CC[C@]2(CCCO2)C[C@H]1N1CCCC1	inactive: -0.0535%
N#CCCN(C(=O)COC(=O)C(O)(c1ccccc1)c1ccccc1)c1ccc(F)cc1	inactive: -0.499%
O=P(Nc1nccs1)(Oc1ccccc1)Oc1ccccc1	inactive: 1.72%
O=C(O)COc1ccc([As](=O)(O)O)cc1[N+](=O)[O-]	inactive: 0.646%
Nc1ccccc1[As](=O)(O)c1ccccc1	inactive: -0.53%
CCCOP(=S)(Nc1nc(N)cc(=O)[nH]1)OCCC	inactive: -0.038%
CS(=O)(=O)c1ccc(Cl)c(NC(=O)COC(=O)C(O)(c2ccccc2)c2ccccc2)c1	inactive: -0.597%
COc1cc(C(=O)NCC2(N3CCOCC3)CCCCC2)cc(Cl)c1OC(C)C	inactive: -3.97%
O=[As](O)(O)c1cccnc1	inactive: -0.21%
O=C(OC1CN2CCC1CC2)c1ccc(Cl)cc1 (centres undefined)	inactive: -3.09%
O=[As](O)(c1cccc(O)c1)c1cccc(O)c1	inactive: 0.158%
COc1ccccc1CNC(=O)COC(=O)C(O)(c1ccccc1)c1ccccc1	inactive: -0.335%
CN(C(=O)Cc1ccc(Cl)c(Cl)c1)[C@@H]1CCCC[C@H]1N1CCCC1	inactive: 0.089%
CC(C)/C=N\N=C(\N)N[N+](=O)[O-]	inactive: 3.78%
CN(CCCl)Cc1cc(Cl)c(NC2=NCCN2)c(Cl)c1	inactive: 1.18%
CCOP(=O)(NC(=NC(C)c1ccccc1)NC(C)c1ccccc1)OCC (centres undefined)	inactive: -0.155%
CC(C)(C)C(=O)NC(Sc1ncccn1)C(Cl)(Cl)Cl (centres undefined)	inactive: -0.0605%
O=P1(N(CCCl)CCCl)NCCC(C(F)(F)F)O1 (centres undefined)	inactive: 4.62%
Cc1ccc(S(=O)(=O)N(CCCN)CCCc2c(C)nc(N)[nH]c2=O)cc1	inactive: -0.176%
O=[As](O)(c1cccs1)c1cccs1	inactive: 0.016%
Nc1cccc([As](=O)(O)c2ccccc2)c1	inactive: 2.3%
Cc1ccc(C(=O)OC2CN3CCC2CC3)cc1 (centres undefined)	inactive: 0.368%
CCCC1OP(=O)(Nc2ccccc2)OCC1CC (centres undefined)	inactive: -0.215%
O=C(/C=C/c1ccccc1)OC1CN2CCC1CC2 (centres undefined)	inactive: 5.34%
CN(C)C1(CNC(=O)c2ccc(S(C)(=O)=O)cc2)CCCCC1	inactive: 1.09%

SMILES	activation
CCOC(=O)Nc1cccc([As](=O)(O)O)c1	inactive: -0.0565%
O=[N+]([O-])c1ccc(Nc2ccc(Oc3ccc([N+](=O)[O-])cc3[N+](=O)[O-])cc2)c([N+](=O)[O-])c1	inactive: -0.024%
Cc1cc(SC(NC=O)C(Cl)(Cl)Cl)ncn1 (centres undefined)	inactive: -0.164%
O=C(O)C(O)c1ccc(N(CCCl)CCCl)cc1 (centres undefined)	inactive: 0.075%
CCOC(=O)Nc1ccc([As](=O)(O)O)c(O)c1	inactive: 0.979%
COP(=O)(OC)N1CC1c1ccccc1 (centres undefined)	inactive: 1.45%
CCOC(=O)c1ccc(NC(=O)C(C)(CCl)SC)cc1 (centres undefined)	inactive: 2.1%
O=C(OC1CN2CCC1CC2)c1cccc([N+](=O)[O-])c1 (centres undefined)	inactive: -0.057%
COC(=O)C1(C)COP(=O)(N2CCCC2)OC1 (centres undefined)	inactive: 0.089%
O=C(Nc1ccncc1[N+](=O)[O-])c1ccc([N+](=O)[O-])cc1[N+](=O)[O-]	inactive: 0%
O=C(O)C(=O)c1ccc(N(CCCl)CCCl)cc1	inactive: 0.094%
COc1ccc(N/C(=N/P(=O)(N2CCOCC2)N2CCOCC2)N2CCOCC2)cc1	inactive: -0.141%
Cc1c2c(nc3ccccc13)SC(C(Cl)Cl)C2 (centres undefined)	inactive: 1.75%
COc1cc(I)ccc1[As](=O)(O)O	inactive: -0.392%
O=P1(N(CCCl)CCCl)Nc2ccccc2N1	inactive: -0.489%
O=P1(N(CCCl)CCCl)OCCCN1CCCl (centres undefined)	inactive: -0.274%
CC(C)c1ccc(OP(=O)(Nc2ccccn2)Oc2ccccc2F)cc1 (centres undefined)	inactive: 0.135%
COC(=O)C1(C)COP(=O)(N2CCCCCC2)OC1 (centres undefined)	inactive: 0.086%
O=C(OC1CN2CCC1CC2)c1cccc2[nH]cnc12 (centres undefined)	inactive: 0.336%
COc1cc(C(=O)NCC2(N3CCOCC3)CCCCC2)ccc1OCC(C)C	inactive: -0.285%
C[As](=O)(O)c1cccc(C(=O)O)c1	inactive: -0.022%
O=[As](O)(c1ccc(O)cc1)c1ccccc1O	inactive: -0.08%
Cc1ccc(OP(=O)(Nc2ccc([N+](=O)[O-])cn2)Oc2ccc(C)cc2)cc1	inactive: 0.103%
[N-]=[N+]=NC1CCCCC1NC(=O)c1cc([N+](=O)[O-])cc([N+](=O)[O-])c1 (centres undefined)	inactive: 0.119%
